We go through one sequence from patent publication US9289478B2, “Formulations of tumour-associated peptides binding to human leukocyte antigen (HLA) class I or class II molecules for vaccine” (IMMATICS BIOTECHNOLOGIES GMBH, priority 2008, dated 2016).

A short description of this series: HPLC-assay for in-use stability after reconstitution with 4.2% sodium hydrogen carbonate solution (Example 2, peptides SEQ ID NO 1-10). The format is physicochemical. The protocol: Resolubilization procedure: For clinical trials the above described formulation is dissolved in 700 μl sodium hydrogen carbonate (4.2%). Remove plastic cap from one vial. Unpack and remove sodium hydrogen carbonate (4.2%) from the refrigerator at least 30 min before resolubilization to bring them up to room temperature before injection. Prepare syringe and needle for reconstitution. Use aseptic technique to take 700 μL of diluent for reconstitution of the lyophilisate. To dissolve the lyophilisate, the vial and the diluent shall be shaken vigorously for 1 minute, check whether solution is clear, otherwise continue shaking for another minute until the solution is clear. 10 to 30 minutes after GM-CSF injection, use a new syringe to administer 500 μL reconstituted formulation i.d. at the same site. Administration has to occur within 1 h after reconstitution. Dissolved lyophilisate may be stored aseptically at room temperature for up to 1 hour following reconstitution.
However, a decrease of two specific peptides, i.e. IMA-CCN-001 and IMA-RGS-001 took place (see Table 6). As these peptides contain a cysteine residue, time-depending dimerization takes place.
Identity, purity and peptide content are determined by analytical RP-HPLC chromatography. Detection wavelength was 220 nm.

Consider STAPPVHNV [MUC-001], for which the “in-use stability, peptide by HPLC-assay” value (+mannitol/lutrol, 1 h after reconstitution) was found to be 99.8%; the “in-use stability, peptide by HPLC-assay” value (+mannitol/lutrol, 2 h after reconstitution) is 99.6%; the “in-use stability, peptide by HPLC-assay” value (+mannitol/lutrol, 3 h after reconstitution) was found to be 100.6%; the “in-use stability, peptide by HPLC-assay” value (+mannitol/lutrol, 4 h after reconstitution) is recorded as 100.6%; the “in-use stability, peptide by HPLC-assay” value (+mannitol/lutrol, 5 h after reconstitution) came to 99.5%; the “in-use stability, peptide by HPLC-assay” value (+mannitol/lutrol, 6 h after reconstitution) came to 101.3%. The “in-use stability, peptide by HPLC-assay” value was found to be 100.0% (+mannitol/lutrol, Initial (starting value set to 100%)); 100.8% (no excipients, 1 h after reconstitution); 99.2% (no excipients, 2 h after reconstitution); 96.6% (no excipients, 3 h after reconstitution); 100.0% (no excipients, Initial (starting value set to 100%)).
